Measurements taken from PMC10916402, “Meropenem-ANT3310, a unique β-lactam-β-lactamase inhibitor combination with expanded antibacterial spectrum against Gram-negative pathogens including carbapenem-resistant Acinetobacter baumannii” (Antimicrobial Agents and Chemotherapy, 2024).

Sequences of proteins named here, by UniProt entry; tags and fusion partners are left off. Residues count along the entry.
UniProt Q6XEC0, 23-265, looked up, species assumed: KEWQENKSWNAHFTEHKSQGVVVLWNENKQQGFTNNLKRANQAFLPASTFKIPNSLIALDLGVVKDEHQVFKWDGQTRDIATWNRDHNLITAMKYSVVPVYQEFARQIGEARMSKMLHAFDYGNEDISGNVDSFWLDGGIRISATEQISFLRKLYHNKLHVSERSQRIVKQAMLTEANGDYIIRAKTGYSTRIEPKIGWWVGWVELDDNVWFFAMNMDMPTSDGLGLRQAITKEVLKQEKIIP

Biological target: OXA-48 (Klebsiella pneumoniae, UniProt Q6XEC0)
Experiment: In vitro SBL inhibition assay (nitrocefin hydrolysis), IC50
Assay type: biochemical
Conditions: 10 min preincubation, 30°C, read-out: Enzyme IC50
Protocol: Nitrocefin (Sigma-Aldrich, St Louis, MO, USA), a chromogenic cephalosporin antibiotic (λ, 482 nm; εM, 15,000 M^−1.cm^−1), was used as a reporter substrate at 100 µM for KPC-2, OXA-23, and OXA-48, at 200 µM for OXA-24 and OXA-51, and at 50 µM for OXA-58. Enzymes were preincubated in the presence of varying concentrations of each compound (0.006 to 3000 nM, diluted twofold in dimethyl sulfoxide (DMSO) for KPC-2, OXA-23, and OXA-48 assays and 0.51 to 10,000 nM diluted threefold in DMSO for OXA-24, OXA-51, and OXA-58) for 10 min at 30°C. Nitrocefin was then added and its hydrolysis by the uninhibited enzyme fraction was followed at an absorbance wavelength of 482 nm for 10 min at 30°C using Envision UV fluorescence plate reader (Perkin Elmer, Waltham, MA, USA). Hydrolysis rate data were used to determine inhibitory activities, expressed in IC50 values [corresponding to the compound concentration (µM) required to inhibit 50% of enzymatic reaction].

O=C(NNC(=O)[C@@H]1CC[C@@H]2CN1C(=O)N2OS(=O)(=O)O)[C@@H]1CCCNC1 [Zid, zidebactam]
IC50: > 3 µM
